The values that follow come from article PMC12624777.

For this experiment, the target named is SNAP::rCaMKII WT (rat CaMKIIα with an N-terminal SNAP-tag) (rat (Rattus norvegicus)), P11275. Put plainly: SEC; analytical gel filtration, Superose 6 10/300 GL, 50 mM Tris pH 7.5, 150 mM NaCl, 1 mM TCEP, 0.4 ml/min; cleared HEK293T lysate injected without additional purification; detected by TMR-Star fluorescence; size estimated from Kav against MW standards. As to conditions: remark: other sources report otherwise.

B1: SNAP::rCaMKII WT (rat CaMKIIα with an N-terminal SNAP-tag) (enzyme)
chain: MATITCTRFTEEYQLFEELGKGAFSVVRRCVKVLAGQEYAAKIINTKKLSARDHQKLEREARICRLLKHPNIVRLHDSISEEGHHYLIFDLVTGGELFEDIVAREYYSEADASHCIQQILEAVLHCHQMGVVHRDLKPENLLLASKLKGAAVKLADFGLAIEVEGEQQAWFGFAGTPGYLSPEVLRKDPYGKPVDLWACGVILYILLVGYPPFWDEDQHRLYQQIKAGAYDFPSPEWDTVTPEAKDLINKMLTINPSKRITAAEALKHPWISHRSTVASCMHRQETVDCLKK[skipping about 20 residues]GGKSGGNKKNDGVKESSESTNTTIEDEDTKVRKQEIIKVTEQLIEAISNGDFESYTKMCDPGMTAFEPEALGNLVEGLDFHRFYFENLWSRNSKPVHTTILNPHIHLMGDESACIAYIRITQYLDAGGIPRTAQSEETRVWHRRDGKWQIVHFHRSGAPSVLPH
modifications: here or on the partner: TMR-Star (fluorescent SNAP-ligand) on the SNAP-tag; TMR-Star (fluorescent SNAP-ligand) on the SNAP-tag
On to B1, for which the stoichiometry N was 12.
